# Binding of CDR-mutated scFvs to a peptide of the spike HR2 region

Reference: Li et al. 2023, doi:10.1038/s41467-023-39022-2. File: FLAb, binding data.

Target peptide (SARS-CoV-2 spike, HR2 region): PDVDLGDISGINAS

Each scFv is VH, a (GGGGS)3 linker, VL, as in the parent Ab-14, and differs from it in the CDRs of the heavy chain only.
VH: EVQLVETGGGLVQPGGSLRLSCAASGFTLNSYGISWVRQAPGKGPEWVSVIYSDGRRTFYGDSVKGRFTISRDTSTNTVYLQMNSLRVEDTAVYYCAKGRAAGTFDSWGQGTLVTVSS
VL: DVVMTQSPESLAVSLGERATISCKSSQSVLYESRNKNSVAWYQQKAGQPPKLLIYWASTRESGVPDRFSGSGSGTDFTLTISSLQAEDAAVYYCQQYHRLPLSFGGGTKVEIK

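Phage display of a naive human antibody library on the peptide gave the parent. This is the validation round: designs drawn from the data on random variants, tested in the same kind of assay. Several design methods are mixed in this list. In AlphaSeq, yeast of one mating type display the scFv and yeast of the other type display the target. After mating in shaken culture at 30 °C for 16 h, diploids were selected and their barcode pairs sequenced. Read counts were normalised to the haploid input and turned into Kd by a linear fit to BCL2-family pairs of known affinity, for each replicate. Each pool was mated in six replicate cultures.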

Sequences are complete VH domains. Variants here have at most six changes. Kd is apparent (estimated from mating counts) and averaged on the log scale over replicates with a signal. Smaller is tighter. Where no diploid with the target was found in any replicate, the entry reads "no signal": below detection, most likely a poor binder, though not proof of it. Where one sequence has several entries in the source, the replicates are pooled.

The variant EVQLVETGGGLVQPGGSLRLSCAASGFTLNQYGISWVRQAPGKGPEWVSVIYSDGRRTFYGNSVKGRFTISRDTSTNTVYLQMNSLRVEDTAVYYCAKGRAAGTFHSWGQGTLVTVSS gave no signal (0 of 6 replicates; controls 0 of 18). The variant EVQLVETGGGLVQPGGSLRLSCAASGFTLNEYGISWVRQAPGKGPEWVSVIYSDGRRTFYGDSVKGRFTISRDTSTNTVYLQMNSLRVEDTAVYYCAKGRAAGTFHTWGQGTLVTVSS gave 8.4 nM (6 of 6 replicates; controls 0 of 18). The variant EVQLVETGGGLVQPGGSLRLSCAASGFDLNSYGISWVRQAPGKGPEWVSVIYSDGMRTFYVDSVKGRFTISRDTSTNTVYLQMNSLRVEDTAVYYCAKGRQAGTFDSWGQGTLVTVSS gave 14 nM (6 of 6 replicates; controls 0 of 18). The variant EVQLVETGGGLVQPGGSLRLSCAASGFTLNSYGISWVRQAPGKGPEWVSVIYSDGRRTFYIDSVKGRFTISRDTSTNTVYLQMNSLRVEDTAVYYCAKGQLAGTFDDWGQGTLVTVSS gave no signal (0 of 6 replicates; controls 0 of 18). For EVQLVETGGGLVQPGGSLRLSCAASGFHLNSYGISWVRQAPGKGPEWVSVIYSDGRRTFYVDSVKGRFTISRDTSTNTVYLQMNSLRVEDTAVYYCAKGKLAGTFDTWGQGTLVTVSS, the assay gave 190 nM (3 of 6 replicates; controls 0 of 18). For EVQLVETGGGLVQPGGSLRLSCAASGITLNSYGISWVRQAPGKGPEWVSVIYSDGRRTFYGGKVKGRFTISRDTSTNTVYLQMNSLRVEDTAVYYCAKGRAAGTFDSWGQGTLVTVSS, the assay gave no signal (0 of 6 replicates; controls 0 of 18). With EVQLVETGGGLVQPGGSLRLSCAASGFQLNEYGISWVRQAPGKGPEWVSVIYSDGRRTFYHDSVKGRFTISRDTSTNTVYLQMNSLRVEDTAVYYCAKGRAAGFFDSWGQGTLVTVSS the result was 320 nM (1 of 6 replicates; controls 0 of 18). With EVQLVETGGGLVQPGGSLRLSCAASGFTLNSYGISWVRQAPGKGPEWVSVIYSDGERTFYADSVKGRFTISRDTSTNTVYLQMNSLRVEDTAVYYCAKGRTAGTFDSWGQGTLVTVSS the result was 1.6 nM (6 of 6 replicates; controls 0 of 18).

The variant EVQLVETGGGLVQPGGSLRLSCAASGFSLKSYGISWVRQAPGKGPEWVSVIYSDGRRTFYGDNVKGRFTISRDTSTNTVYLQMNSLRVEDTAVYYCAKGRTAGTFDSWGQGTLVTVSS showed 64 nM (6 of 6 replicates; controls 0 of 18). For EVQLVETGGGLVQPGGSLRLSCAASGFQLNSYGISWVRQAPGKGPEWVSVIYSDGRRTFYSDSVKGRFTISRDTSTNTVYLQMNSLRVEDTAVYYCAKGTAAGTFDSWGQGTLVTVSS, the assay gave 1.4 nM (6 of 6 replicates; controls 0 of 18). The variant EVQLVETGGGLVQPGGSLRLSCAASGFTLNSYGISWVRQAPGKGPEWVSVILSDGRRTFYGDSVKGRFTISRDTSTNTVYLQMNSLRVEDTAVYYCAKGQLAGTFDSWGQGTLVTVSS showed no signal (0 of 6 replicates; controls 1 of 18). The variant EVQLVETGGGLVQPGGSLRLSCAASGQTVNSYGISWVRQAPGKGPEWVSVIYSDGRRTFYGDDVKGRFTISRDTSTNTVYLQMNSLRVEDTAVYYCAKGRAAGTFDSWGQGTLVTVSS gave no signal (0 of 6 replicates; controls 1 of 18). With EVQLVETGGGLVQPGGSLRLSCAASGFTLDSYGISWVRQAPGKGPEWVSVIYFDGRRTMYGDSVKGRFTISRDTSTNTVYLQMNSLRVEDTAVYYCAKGRAAGTFDSWGQGTLVTVSS the result was no signal (0 of 6 replicates; controls 0 of 18). With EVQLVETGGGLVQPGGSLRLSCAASGFALNSYGISWVRQAPGKGPEWVSVIYSDGRRTFYGDSVKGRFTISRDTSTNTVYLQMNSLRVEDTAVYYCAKGRAAGTFRSWGQGTLVTVSS the result was no signal (0 of 6 replicates; controls 0 of 18). The variant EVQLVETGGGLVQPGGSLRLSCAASGFTLNSYGISWVRQAPGKGPEWVSVIYSDGRRTFYADNVKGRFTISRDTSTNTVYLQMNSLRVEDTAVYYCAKGQLAGTFDSWGQGTLVTVSS gave 7.8 nM (5 of 6 replicates; controls 1 of 18). The variant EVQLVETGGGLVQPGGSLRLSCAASGFTLNEYGISWVRQAPGKGPEWVSVIYSDGRRTAYGDSVDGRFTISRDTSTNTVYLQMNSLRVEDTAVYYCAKGEEAGTFDSWGQGTLVTVSS showed 1.4 nM (6 of 6 replicates; controls 0 of 18).

For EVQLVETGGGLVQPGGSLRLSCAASGFTLNEYGISWVRQAPGKGPEWVSVIYSDGRRTFYGDSVKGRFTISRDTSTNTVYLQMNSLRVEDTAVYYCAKGRAAGTFVSWGQGTLVTVSS, the assay gave 100 nM (2 of 12 replicates; controls 0 of 36). The variant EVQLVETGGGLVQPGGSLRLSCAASGFELNSYGISWVRQAPGKGPEWVSVIYSDGRRTFYQDKVKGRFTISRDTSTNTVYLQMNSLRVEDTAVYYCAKGRTAGTFDSWGQGTLVTVSS gave 5.7 nM (5 of 6 replicates; controls 0 of 18). The variant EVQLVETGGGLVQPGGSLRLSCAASGFTLNSYGISWVRQAPGKGPEWVSVIYSDGRRTFYKDSVKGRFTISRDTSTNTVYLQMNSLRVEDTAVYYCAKETAAGTFDSWGQGTLVTVSS showed no signal (0 of 6 replicates; controls 0 of 18). The variant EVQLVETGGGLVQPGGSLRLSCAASGFTLNSYGISWVRQAPGKGPEWVSVIYSDGRRTFYGDSVKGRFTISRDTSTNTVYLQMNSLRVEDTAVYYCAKGYAAGTFDLWGQGTLVTVSS gave 18 nM (4 of 6 replicates; controls 1 of 18). The variant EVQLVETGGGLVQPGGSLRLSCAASGFTLMSYGISWVRQAPGKGPEWVSVIYSDGRRTFYQDSVKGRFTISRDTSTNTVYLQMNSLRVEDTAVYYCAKGRAAGTFDSWGQGTLVTVSS gave 6.5 nM (2 of 6 replicates; controls 0 of 18). With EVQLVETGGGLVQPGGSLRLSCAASGFSLNSYGISWVRQAPGKGPEWVSVIYSDGRRTFYGDSVKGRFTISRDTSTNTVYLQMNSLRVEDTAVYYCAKGQTAGTFDFWGQGTLVTVSS the result was 4.6 nM (6 of 6 replicates; controls 0 of 18). For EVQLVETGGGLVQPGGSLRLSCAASGEELNEYGISWVRQAPGKGPEWVSVIYRDGRRTFYGDSVKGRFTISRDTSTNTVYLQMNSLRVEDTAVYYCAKGRAAGTFDSWGQGTLVTVSS, the assay gave no signal (0 of 6 replicates; controls 1 of 18). With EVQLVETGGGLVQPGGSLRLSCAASGFILNSYGISWVRQAPGKGPEWVSVIYSDGRRTFYGDSVKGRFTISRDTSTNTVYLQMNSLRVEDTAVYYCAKGQLAGTFDSWGQGTLVTVSS the result was 13 nM (1 of 6 replicates; controls 0 of 18).

The variant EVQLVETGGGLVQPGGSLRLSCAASGFELNEYGISWVRQAPGKGPEWVSVIYSDGRRTFYSDSVKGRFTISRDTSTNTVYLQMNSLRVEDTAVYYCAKGNAAGTFDSWGQGTLVTVSS gave 5.7 nM (6 of 6 replicates; controls 1 of 18).

The first 3 variants above that were never detected:

VH,Kd,replicates with signal,signal with controls
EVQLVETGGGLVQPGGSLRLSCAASGFTLNQYGISWVRQAPGKGPEWVSVIYSDGRRTFYGNSVKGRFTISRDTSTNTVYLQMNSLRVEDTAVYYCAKGRAAGTFHSWGQGTLVTVSS,no signal,0 of 6,0 of 18
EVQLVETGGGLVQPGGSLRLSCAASGFTLNSYGISWVRQAPGKGPEWVSVIYSDGRRTFYIDSVKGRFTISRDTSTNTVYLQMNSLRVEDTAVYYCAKGQLAGTFDDWGQGTLVTVSS,no signal,0 of 6,0 of 18
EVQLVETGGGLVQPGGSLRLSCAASGITLNSYGISWVRQAPGKGPEWVSVIYSDGRRTFYGGKVKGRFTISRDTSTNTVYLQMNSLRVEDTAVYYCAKGRAAGTFDSWGQGTLVTVSS,no signal,0 of 6,0 of 18

Nonspecific signal, from three strains lacking the peptide, appeared in 1% of pairings of all heavy chain designs, centred on 120 nM (5% of these signals below 7.0 nM); values are not corrected for it. The control count says in how many pairings with the empty strains this scFv gave a signal. The parent sequence was in this pool as ten entries: three were never detected, three once, and four in most replicates, with averages from 2.2 nM to 240 nM. The range of this assay differs from that of the first round, and the authors advise against merging the two. In the paper, a design with two or fewer of six values counts as a poor binder.